Results as given in ChEMBL document CHEMBL1126929, “Syntheses of 2,5- and 2,6-difluoronorepinephrine, 2,5-difluoroepinephrine, and 2,6-difluorophenylephrine: effect of disubstitution with fluorine on adrenergic activity” (J Med Chem, 1993).

Sequences of proteins named here, by UniProt entry; tags and fusion partners are left off. A change or cut given only in a name is not applied to a line headed by its entry.
UniProt P22086: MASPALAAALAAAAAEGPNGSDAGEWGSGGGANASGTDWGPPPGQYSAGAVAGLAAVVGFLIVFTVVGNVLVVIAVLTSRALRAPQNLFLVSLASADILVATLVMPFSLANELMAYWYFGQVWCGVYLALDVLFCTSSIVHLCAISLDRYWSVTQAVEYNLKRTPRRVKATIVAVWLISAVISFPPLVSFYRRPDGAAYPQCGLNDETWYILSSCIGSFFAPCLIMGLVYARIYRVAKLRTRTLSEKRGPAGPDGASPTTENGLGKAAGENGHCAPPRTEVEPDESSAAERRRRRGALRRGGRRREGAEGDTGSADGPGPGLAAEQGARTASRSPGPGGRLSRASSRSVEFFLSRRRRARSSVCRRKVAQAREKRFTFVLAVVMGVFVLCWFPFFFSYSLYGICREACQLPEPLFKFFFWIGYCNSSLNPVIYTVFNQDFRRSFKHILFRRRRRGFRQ
UniProt P19328: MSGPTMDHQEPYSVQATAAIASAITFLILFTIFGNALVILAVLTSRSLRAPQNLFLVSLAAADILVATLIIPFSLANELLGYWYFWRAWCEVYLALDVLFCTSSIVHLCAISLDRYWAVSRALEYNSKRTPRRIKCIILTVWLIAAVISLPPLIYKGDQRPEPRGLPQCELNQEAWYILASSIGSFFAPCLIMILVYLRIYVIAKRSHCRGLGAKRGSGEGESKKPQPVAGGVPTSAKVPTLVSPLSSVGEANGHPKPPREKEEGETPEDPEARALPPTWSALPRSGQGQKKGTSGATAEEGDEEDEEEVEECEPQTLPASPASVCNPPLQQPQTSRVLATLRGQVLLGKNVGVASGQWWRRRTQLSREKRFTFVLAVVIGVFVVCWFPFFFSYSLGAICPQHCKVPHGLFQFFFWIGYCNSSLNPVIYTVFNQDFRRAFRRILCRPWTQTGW
UniProt P22909: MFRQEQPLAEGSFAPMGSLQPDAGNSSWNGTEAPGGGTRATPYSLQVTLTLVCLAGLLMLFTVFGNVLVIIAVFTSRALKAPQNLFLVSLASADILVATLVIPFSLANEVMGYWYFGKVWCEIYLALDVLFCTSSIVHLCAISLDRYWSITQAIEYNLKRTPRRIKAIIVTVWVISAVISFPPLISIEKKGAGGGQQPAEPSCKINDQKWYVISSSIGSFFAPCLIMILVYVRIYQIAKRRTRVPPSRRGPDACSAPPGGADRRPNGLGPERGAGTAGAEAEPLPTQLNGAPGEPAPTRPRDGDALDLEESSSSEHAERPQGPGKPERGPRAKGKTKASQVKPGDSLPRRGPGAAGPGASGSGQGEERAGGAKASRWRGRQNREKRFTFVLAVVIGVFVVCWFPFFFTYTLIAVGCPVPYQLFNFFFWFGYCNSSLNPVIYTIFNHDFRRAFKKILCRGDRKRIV

Molecular target: Adrenergic receptor alpha-2 (Rattus norvegicus, UniProt P22086+P19328+P22909)
Assay: Displacement of [3H]clonidine from adrenergic alpha 2 receptor of rat cerebral cortical membranes
Assay type: cell membranes, Membrane

Ki: 38 nM
Structure (SMILES): CNC[C@H](O)c1ccc(O)c(O)c1 [EPINEPHRINE]
